Earlier results as cited in patent US10627374B2, “LC-MS configuration for purification and detection of analytes having a broad range of hydrophobicites” (COHESIVE TECHNOLOGIES INC., priority 2010, dated 2020).
Read-outs that look alike come from different tables or passages of the source. Only a part of the results on these compounds is given; other tests are left out.

Question: Which logP (Table 1) does the source give for Norfentanyl here?
Answer: Its logP is 3.94.

Question: What about the logP (Table 2) of the same substance?
Answer: Its logP is 3.94.
